In ChEMBL document CHEMBL1275377, “Structure-based design, synthesis, and structure-activity relationship studies of HIV-1 protease inhibitors incorporating phenyloxazolidinones” (J Med Chem, 2010) one finds Ki data, which are given here for 1 molecule.

For the experiment, the target named is Protease (Human immunodeficiency virus 1, UniProt Q9YQ12). Nature of the experiment: Inhibition of wild type HIV1 protease by FRET.

pKi: −log10 of the molar value.

A word on the pKi: it is −log10 of the Ki, conventionally taken in molar units. For `Cc1cccc(C)c1OCC(=O)N[C@@H](Cc1ccccc1)[C@@H](O)C[C@H](Cc1ccccc1)NC(=O)[C@H](C(C)C)N1CCCNC1=O` [LOPINAVIR], the pKi was 11.30.
